Values quoted from earlier work as cited in patent US20120052135A1, “Phosphate Adsorbent” (VIFOR (INTERNATIONAL) AG, priority 2009, published 2012).

Conditions: haemodialysis patients, oral iron salts

ferrous sulphate
absorption rate of iron: approximately 1%
